The target in this assay is T1, Vitamin D3 receptor (Homo sapiens) (UniProt P11473).
T1 sequence (whole entry): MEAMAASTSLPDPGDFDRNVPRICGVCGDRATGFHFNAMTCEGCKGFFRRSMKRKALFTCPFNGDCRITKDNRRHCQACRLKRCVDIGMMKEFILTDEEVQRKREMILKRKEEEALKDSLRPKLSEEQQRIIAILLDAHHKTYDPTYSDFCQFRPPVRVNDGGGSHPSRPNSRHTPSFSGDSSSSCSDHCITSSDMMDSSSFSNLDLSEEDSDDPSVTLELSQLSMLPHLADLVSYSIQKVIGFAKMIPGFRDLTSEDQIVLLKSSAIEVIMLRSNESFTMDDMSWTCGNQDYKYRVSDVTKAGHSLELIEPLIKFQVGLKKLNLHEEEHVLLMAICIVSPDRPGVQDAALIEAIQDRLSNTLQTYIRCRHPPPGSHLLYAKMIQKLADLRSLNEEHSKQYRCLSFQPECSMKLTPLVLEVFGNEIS
As to the kind of experiment: Agonist activity at VDR in human HL60 cells assessed as induction of cell differentiation at 3 to 10 uM by NBT reduction assay. It counts as cell-based. The note with it: HL-60.

Calls of active or inactive are those of the source. The rule behind the calls is not given here.

Regarding `CCCCCCCCOC(C)(C)[C@@H](O)COc1ccc(C(CC)(CC)c2ccc(OC[C@@H](O)CO)c(C)c2)cc1C`, the outcome was Active.

Values taken from ChEMBL document CHEMBL3632608, “Effects of alkyl side chains and terminal hydrophilicity on vitamin D receptor (VDR) agonistic activity based on the diphenylpentane skeleton” (Bioorg Med Chem Lett, 2015).
